The species entered for assay [1] is Homo sapiens. Briefly: Selectivity index, ratio of Ki for CB1 receptor (unknown origin) to Ki for CB2 receptor (unknown origin).
For assay [2], the target named is Cannabinoid receptor 2 (Homo sapiens, UniProt P34972). Briefly: Displacement of [3H]CP-55,940 from CB2 receptor (unknown origin) after 1 hr by scintillation counting analysis. In general terms: In a radioligand displacement assay an active substance lowers the binding of a labelled ligand.

Amino acid sequences for entries named in this document (tags omitted).
UniProt P34972, whole entry: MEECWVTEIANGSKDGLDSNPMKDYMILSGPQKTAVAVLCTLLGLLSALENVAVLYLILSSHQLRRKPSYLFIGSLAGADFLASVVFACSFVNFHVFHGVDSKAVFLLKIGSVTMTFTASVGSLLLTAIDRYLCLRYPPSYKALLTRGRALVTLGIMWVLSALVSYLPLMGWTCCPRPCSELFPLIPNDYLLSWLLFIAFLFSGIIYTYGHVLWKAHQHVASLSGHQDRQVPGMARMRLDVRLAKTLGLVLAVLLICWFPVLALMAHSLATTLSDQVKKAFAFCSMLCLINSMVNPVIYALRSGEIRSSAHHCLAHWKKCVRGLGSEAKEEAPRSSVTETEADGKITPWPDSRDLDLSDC

Consider `CCN(CC)c1ccc(CN(c2ccc(Cl)cc2)S(=O)(=O)c2cccc(C)c2)cc1`, for which the Ratio Ki in assay [1] was 309.
As for `CCN(CC)c1ccc(CN([C@]23C[C@H]4C[C@H](C[C@H](C4)C2)C3)S(=O)(=O)c2ccc(C)cc2)cc1`, in assay [2] (read-out: Ki), the Ki is 0.047 µM.
Same read-out and setting: with `CCCCCCCN(Cc1ccc(N(CC)CC)cc1)S(=O)(=O)c1ccc(C)cc1` the figure was 2.74 µM.
Take `CCN(CC)c1ccc(CN(c2ccc(Cl)cc2)S(=O)(=O)c2ccccc2)cc1`: the Ki in assay [2] (read-out: pKi (converted)) is 0.0126 µM.
Turning to `CCN(CC)c1ccc(CN(c2ccc(C)cc2)S(=O)(=O)c2ccc(Cl)cc2)cc1`, the Ratio Ki in assay [1] came out at 137.

The values are drawn from ChEMBL document CHEMBL2321866 (J Med Chem, 2013).
